Some of these compounds have results that are not shown, active ones among them. Calls of active or inactive are those of the source. The rule behind the calls is not given here.
Test system: B cell line, CD40 signaling inhibition reporter
Test: CD40 pathway inhibition in B cells – B cell lineage, dose response (AID 1259332);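 note: cells stimulated with CD40 ligand tCD40L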

In the case of `C=C(C)C#CC(O)(C(=O)OC1CCN(C)CC1)c1ccccc1` (stereo unspecified), the AC50 is reported as inactive: > 7 µM.

From PubChem BioAssay AID1259332 (Broad Institute, 2017)
